Assays:
hTRPV3 [1] = target: T1, hTRPV3 (Homo sapiens (Human), UniProt Q8NET8); assay: Semi-auto patch clamp recording in nHEK cells (WT or TRPV3-mu transfected); type: cell-based
Method: Compounds were tested at room temperature using the whole-cell patch clamp technique with a HEKA EPC 10 usb patch-clamp amplifier (HEKA Elektronik, Germany). Output signals from the amplifier were digitized and recorded with PatchMaster (v2x90.5 HEKA Elektronik, Germany). For quality control, the minimum seal resistance was set at 100 MΩ, and the outward current was stabilized with at least 1 nA of rectifying current at +80 mV while the inward current was stabilized with at least 300 pA of rectifying current at −80 mV.
NPC-1 Chips (Nanion, Germany) were used to trap a single cell. For both WT or transfected cells, chips of the categories 2-3 MOhm and 3-5 MOhm were used. Chips are disposable and each recording required a new chip. […]
For WT nHEK cells, the “intermediate protocol” in the semi-automatic Port-a-Patch device software was selected based on the parameters: initial sealing, measured by resistance, and its ability to maintain sealing along with assay.
The procedure was started with the “Startup procedure” protocol that validates chip contact and adjusts offset, then after the system was ready, 5 μl of cells suspended in extracellular buffer was added and the intermediate protocol was automatically launched. […]
The sensitivity of reading was adjusted by changing the gain from 2.0 to 0.5. […]

The chains behind the UniProt entries cited, without tags or fusion partners. Where a name states a change or a piece, a line headed by the entry shows the natural chain unless it says otherwise.
UniProt Q8NET8: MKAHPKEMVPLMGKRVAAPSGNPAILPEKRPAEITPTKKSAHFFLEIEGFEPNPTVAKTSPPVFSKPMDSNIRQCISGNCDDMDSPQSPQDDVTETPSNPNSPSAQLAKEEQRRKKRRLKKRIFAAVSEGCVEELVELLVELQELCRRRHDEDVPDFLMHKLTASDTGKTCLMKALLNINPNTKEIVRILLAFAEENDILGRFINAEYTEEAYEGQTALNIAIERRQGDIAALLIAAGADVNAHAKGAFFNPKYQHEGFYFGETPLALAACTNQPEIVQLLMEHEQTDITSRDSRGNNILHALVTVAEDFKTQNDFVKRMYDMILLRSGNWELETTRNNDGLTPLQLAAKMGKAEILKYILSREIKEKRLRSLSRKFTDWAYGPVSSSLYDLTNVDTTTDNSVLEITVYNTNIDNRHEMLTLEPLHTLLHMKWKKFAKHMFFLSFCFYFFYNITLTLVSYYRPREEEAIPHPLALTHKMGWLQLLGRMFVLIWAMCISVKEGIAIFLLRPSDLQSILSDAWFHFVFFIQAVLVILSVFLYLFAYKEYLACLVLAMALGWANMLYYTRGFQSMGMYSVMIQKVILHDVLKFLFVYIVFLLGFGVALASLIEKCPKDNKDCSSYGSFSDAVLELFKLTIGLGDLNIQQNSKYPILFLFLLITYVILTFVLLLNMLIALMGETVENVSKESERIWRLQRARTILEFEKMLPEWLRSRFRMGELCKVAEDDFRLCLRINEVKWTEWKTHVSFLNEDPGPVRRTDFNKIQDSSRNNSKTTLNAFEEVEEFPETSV

hTRPV3 [2] = target: T1, hTRPV3; assay: Whole-cell patch clamp, hTRPV3 Phase 1 / Phase 2 currents; type: cell-based; conditions: Phase 1 current, inward, read-out: hTRPV3 Patch P1 Inwd
Source text: Whole-cell patch clamp experiments permit the detection of currents through the TRPV3 channel in the cell line described above. A glass electrode is brought into contact with a single cell and the membrane is then ruptured, permitting control of the voltage of the cell membrane and measurement of currents flowing across the membrane using the amplifier attached to the electrode. A perfusion system permits control of the extracellular solution, including the addition of blockers and activators of the current. The current can be activated by heating this solution to 28° C. or warmer or by addition of 20 μM 2-APB to the solution.
TRPV3 cells were induced 20-48 hours, removed from growth plates, and replated at low density (to attain good single-cell physical separation) on glass coverslips for measurement. In some cases, cells were grown in low density overnight on glass coverslips. Patch clamp recordings were made in the whole-cell mode with a holding potential of −40 mV. Every 5 seconds, a voltage ramp was applied from −120 to +100 mV, 400 ms in duration. Currents elicited were quantified at −80 mV and +80 mV. […] External solution was Ringer's solution described above.
P1 refers to the Phase 1 current for human (h) TRPV3, and P2 refers to the Phase 2 current for human (h) TRPV3. […]

| IC50 (hTRPV3 [1]) [nM] | SMILES | IC50 (hTRPV3 [2]) [nM] |
| --- | --- | --- |
| < 10 | O=C(c1ccc(F)cn1)N1CC[C@H](c2ccc(-c3ccccc3C3CC3)cc2CO)C1 (stereo in doubt) [KM-001-E1, [3-(2′-Cyclopropyl-3-hydroxymethyl-biphenyl-4-yl)-pyrrolidin-1-yl]-(5-fluoro-pyridin-2-yl)-methanone] | – |
| – | O=C(c1ccc(F)cn1)N1CCC(c2ccc(-c3ccccc3C3CC3)cc2CO)C1 (centres unmarked) [Compound 2-72, (3-(2′-cyclopropyl-3-(hydroxymethyl)biphenyl-4-yl)pyrrolidin-1-yl)(5-fluoropyridin-2-yl)methanone] | < 10 |

— patent US12435061B2 (priority 2020, dated 2025)
